Laboratory results taken from PMC7394479 (Journal of medicinal chemistry, 2020).
Converted amounts (≈) assume the structure as drawn. Read-outs that look alike come from different tables or passages of the source.

Legend:
[1] = mice, from peak concentrations at 0.5 h after injection
[2] = cited from earlier work
[3] = cited from earlier work; remark: listed apart in the source

COc1cc(/C=C/C(=O)NCCn2c(C(F)(F)F)cc3ccccc32)cc(OC)c1OC [compound 1]
brain-to-plasma ratio [1]: 1.7
aqueous solubility [2]: 27 µM (≈ 12.1 µg/mL)
brain-to-plasma ratio [3]: 1.7
plasma half-life ([3]; rodents): 1.7 h
